Literature values in US10160755B2 (Plexxikon Inc., priority 2015, dated 2018).

System: relapsed or chemotherapy-refractory FLT3-ITD+ AML
Conditions: relapsed or chemotherapy-refractory FLT3-ITD+ AML patients, phase II monotherapy; cited from earlier work

## CC(C)(C)c1cc(NC(=O)Nc2ccc(-c3cn4c(n3)sc3cc(OCCN5CCOCC5)ccc34)cc2)no1 [quizartinib]
  composite complete remission (CRc) rate: ~50%
